Target: T1, HLA-A2.1 (Homo sapiens, UniProt P04439, D140Y/D185E/D98H/E176V/E277Q/G131W/G231S/I119V/I121R/I166T/I218V/L300P/L318F/N151K/N90K/P208A/P217A/Q86G/Q94H/R138H/R169H/T345S)
T1 construct: endogenous in cells; host or cells: 174CEM.T2
Format: cell-based

KLPQLCTEL [HPV16 peptide 1]
FI (Fluorescence Index): 1.6 | MF (mean HLA-A2.1 fluorescence): 168.6
